Values of other authors as cited in patent publication US12257245B2, “Methods and compositions for inhibition of EGF/EGFR pathway in combination with anaplastic lymphoma kinase inhibitors” (In3Bio Ltd., priority 2018, dated 2025).
Like-named read-outs stand apart in the source and are kept apart here.

Columns and labels:
[1] = system: total EGFR in EGFR-mut cells such as PC9, H1975 or H3255; details: cetuximab 1 to 2 hours; anti-EGF VacAbs 24 hours of incubation; cited from earlier work
[2] = system: PC9 xenografts; details: cited from earlier work
[3] = system: ALK-fusion-positive NSCLC; details: cited from earlier work
[4] = system: ALK-positive NSLC; details: phase III versus standard chemotherapy; cited from earlier work
[5] = system: ALK-positive NSLC; details: cited from earlier work
[6] = ALK-positive treatment-naive patients

Molecule | levels of total EGFR (receptor down-regulation) [1] | enhancement of the effects of gefitinib [2] | median PFS [3] [months] | orr [4] [%] | pfs [4] [months] | mpfs [5, 6] [months] | orr [5, 6] [%] | mpfs hr ([5]; crizotinib versus chemotherapy) | overall survival versus chemotherapy ([5]; in vivo)
Cetuximab: anti-EGFR monoclonal antibody | markedly decrease | failed to enhance the effects of gefitinib |  |  |  |  |  |  | 
C[C@@H](Oc1cc(-c2cnn(C3CCNCC3)c2)cnc1N)c1c(Cl)ccc(F)c1Cl [Crizotinib] |  |  | 13 | 65 | 7.7 | 10.9 | 74 | 0.45 | No differences
